These compounds were tested on IL-17A secretion by CD4+ cells (assay: IL-17A secretion by CD4+ cells (HTRF)). Conditions: 96 h; human CD4+ cells activated with anti-CD3 and anti-CD28, 4 days of incubation; read-out: IC50 hCD4/IL17.
Assay type: cell-based
Description: This model allows measurement of the effect of inhibitors on IL-17A secretion by CD4+ cells. […] The amount of IL-17a secreted is measured by the TR-FRET (kit HTRF® Human Interleukin 17A (Cisbio, #64H17PEC)) technology.
The cells are rapidly thawed, resuspended in their culture medium (RPMI inactivated 10% FCS) supplemented with soluble anti-CD28 antibodies and seeded (100 000 cells/well) in 96-well plates precoated with anti-CD3 antibodies. The cells are then treated with the ranges of inhibitors to be tested (from 1000 nM to 0.05 nM, 0.1% DMSO). […] The IC50 values are calculated from a 4-parameter logistic model using the XLFit software (IDBS).
`CCc1ccc(N(CC(C)C)S(=O)(=O)c2ccc(SCC3CCOCC3)c(CO)c2)cc1` [compound 21, N-(4-ethylphenyl)-3-hydroxymethyl-N-isobutyl-4-(tetrahydropyran-4-ylmethylsulfanyl)benzenesulfonamide] gave an IC50 of less than 0.1 µM.
`CCc1ccc(N(CC(C)C)S(=O)(=O)c2ccc(OCC3CCOCC3)c(S(C)(=O)=O)c2)cc1` [compound 24, N-(4-ethylphenyl)-N-isobutyl-3-methanesulfonyl-4-(tetrahydropyran-4-ylmethoxy)benzenesulfonamide] gave an IC50 of less than 0.1 µM.
`CCc1ccc(N(CC(C)C)S(=O)(=O)c2ccc(N3CCN(C(C)=O)CC3)c(S(C)(=N)=O)c2)cc1` (stereo not drawn) [compound 63, 4-(4-acetylpiperazin-1-yl)-N-(4-ethylphenyl)-N-isobutyl-3-(S-methylsulfonimidoyl)benzenesulfonamide] gave an IC50 greater than 1 µM.

From patent US10457637B2, “Benzenesulfonamide derivatives as inverse agonists of retinoid-related orphan receptor gamma (RORγ(T))” (GALDERMA RESEARCH & DEVELOPMENT, priority 2014, dated 2019)
